Experimental data taken from US20130267484A1, “TREATMENT OF RHEUMATOID ARTHRITIS WITH MASITINIB” (AB SCIENCE, priority 2010, published 2013).

System: adults with active RA
Details: initial phase; resolved upon masitinib interruption
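Note: Open-label phase 2a trial, oral dosing twice daily, incidence of drug-related AEs (>4%) by intensity per Common Toxicity Criteria v3.0, initial 12-week and extension phases.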

Cc1ccc(NC(=O)c2ccc(CN3CCN(C)CC3)cc2)cc1Nc1nc(-c2cccnc2)cs1 [masitinib, 4-(4-methylpiperazin-1-ylmethyl)-N-[4-methyl-3-(4-pyridin-3ylthiazol-2-ylamino)phenyl]benzamide]
Patients with angioedema of moderate intensity (face edema, rash and dyspnea): One
